Experimental data reported in publication PMC7784741 (Protein Science : A Publication of the Protein Society, 2020).

Chains of the proteins cited; added tags and fusions are not shown. Residues count along the entry.
UniProt Q15561, 217-434: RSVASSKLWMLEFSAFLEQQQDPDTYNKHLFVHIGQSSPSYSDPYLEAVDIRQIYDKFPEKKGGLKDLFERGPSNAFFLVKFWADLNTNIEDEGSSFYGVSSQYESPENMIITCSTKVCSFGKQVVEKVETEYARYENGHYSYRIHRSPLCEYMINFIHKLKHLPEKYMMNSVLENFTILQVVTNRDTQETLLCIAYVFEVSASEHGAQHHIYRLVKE

Target: YAP-binding domain of human TEAD4, TEAD4 217-434 (human, UniProt Q15561 217-434, biotin (N-biotinylated Avi tag))
Assay: SPR

In the case of SETDLEALFNAVMNPKTANVPQTVPMRLRKLPDSFFKPP (N-acetylated; C-amidated) [synthetic peptide of the TEAD-binding domain of human YAP, residues 61-99], the Kd is reported as 81 nM.
